Measured values as given in PubChem BioAssay (NCI).
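Values below derive from 48-hour exposures of cells grown in 96-well plates, with endpoints linearly interpolated between the two concentrations bracketing the appropriate inhibition level. GI50: concentration for 50% inhibition of growth. Definition used: TGI = concentration required for complete inhibition of growth.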

Tested on: U251 CNS
Experiment: NCI anticancer screen, dose series, 48 h

With `CCCCCCC[CH2][Sn]([CH2]CCCCCCC)([O]c1c([N+](=O)[O-])cc([N+](=O)[O-])cc1[N+](=O)[O-])[O]c1c([N+](=O)[O-])cc([N+](=O)[O-])cc1[N+](=O)[O-]` as the molecule, how does the GI50 read?
Its GI50 is 1.75 µM.

What about the TGI of the same molecule?
Its TGI is 4.47 µM.
